Assay results as given in patent EP0359745B1, “GROWTH FACTOR RECEPTOR” (IMPERIAL CANCER RESEARCH TECHNOLOGY LIMITED, priority 1987, dated 1988).

By UniProt entry, the sequences of proteins in these tests, tags left out. Where a name states a change or a piece, a line headed by the entry shows the natural chain unless it says otherwise.
UniProt P21729: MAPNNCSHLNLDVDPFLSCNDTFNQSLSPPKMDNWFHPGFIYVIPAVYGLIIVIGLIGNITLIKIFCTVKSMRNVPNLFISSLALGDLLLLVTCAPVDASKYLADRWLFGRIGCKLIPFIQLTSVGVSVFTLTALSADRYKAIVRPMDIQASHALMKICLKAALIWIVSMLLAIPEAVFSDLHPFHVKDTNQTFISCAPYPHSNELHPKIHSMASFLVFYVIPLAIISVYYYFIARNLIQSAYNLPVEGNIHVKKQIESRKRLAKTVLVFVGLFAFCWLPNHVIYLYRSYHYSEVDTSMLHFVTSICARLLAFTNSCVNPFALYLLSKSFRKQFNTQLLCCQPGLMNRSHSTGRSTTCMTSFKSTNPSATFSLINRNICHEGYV

Target: Mr 75000-85000 protein (Mus musculus, UniProt P21729)
Test: ¹²⁵I-GRP affinity labelling (EGS cross-linking) of the Mr 75000-85000 protein in Swiss 3T3 cells, SDS-PAGE and scanning densitometry
Assay type: binding
Design: endogenous in cells; host or cells: Swiss 3T3 cells (mouse fibroblasts)
Protocol: After 2.5 h the cells were washed three times at 15°C with phosphate buffered saline (PBS) ad then incubated for 15 min at 15°C In 1 ml of binding medium, pH 7.4 In the presence of the appropriate cross-linking agent at the concentration indicated. The cross-linking agents (EGS, DSS, DSP and BSCOES) were dissolved in dimethyl sulphoxide immediately prior to use and were added to medium to give a final concentration of dimethylsulphoxide of 1-2%. The cultures were rapidly rinsed twice with PBS at 4°C and solubilized in 0.1ml of 2 x sample buffer 0.2 M Tris-HCl, pH 6.8, 10% (w/v) glycerol, 6% sodium dodecyl sulphate (SDS) (w/v) 4% β-mercaptoethanol (v/v) and 2 mM ethylenediaminetetraacetic acid. Samples were immediately heated at 100°C for 3-5 min and analysed by either one or two-dimensional gel electrophoresis.
Slab gel electrophoresis was performed using 7.5% acrylamide in the separating gel ad 5% in the stacking gel, ad 0.1% SDS (31). […] The Mr 75000-85000 band from autoradiograms was scanned using a Joyce-Loebl double beam densitometer and the areas under specific peaks were measured with a Hewlett-Packard digitizer.
After this time some cells were washed four times with cold (4°C) PBS supplemented with 1 mg/ml BSA, solubilized and total cell associated radioactivity was then determined in a gamma counter. […] The cells were then solubilized and samples were analyzed by SDS-PAGE. […]

Bombesin
cross-linking of ¹²⁵I-GRP / level of the Mr 75000-85000 protein (in words) (summary of Table 1, saturating concentrations of the other mitogens): markedly inhibited | Mr 75000-85000 protein % of control (¹²⁵I-GRP (0.5 nM), 15°C, 2.5 h, 6 mM EGS, additions: GRP 360 nM, GRP (14-27) 30 nM, bombesin 30 nM, litorin 92 nM, neuromedin B 220 nM, [D-Arg¹,D-Pro²,D-Trp^7,9,Leu¹¹] substance P 100 »M, GRP (1-16) 3230 nM, PDGF 5 nM, EGF 83 nM, vasopressin 1000 nM, insulin 1 »g/ml, phorbol 12,13 dibutyrate 2000 nM, substance P 740 nM, substance K 880 nM, somatostatin 610 nM, neurotensin 600 nM): 0.5 % of control
